Assay results published in US20220127335A1, “TETRAMERIC PROTEIN SCAFFOLDS AS NANO-CARRIERS OF THERAPEUTIC PEPTIDES FOR TREATING CANCER AND OTHER DISEASES” (UNIVERSITY OF MARYLAND, BALTIMORE, priority 2019, published 2022).

Chains of the proteins cited; added tags and fusions are not shown. Residues count along the entry.
UniProt Q00987, 25-109 limits assumed: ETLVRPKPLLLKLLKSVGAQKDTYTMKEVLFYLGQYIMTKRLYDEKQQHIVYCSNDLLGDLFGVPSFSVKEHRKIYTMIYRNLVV
UniProt Q00987, 26-109 limits assumed: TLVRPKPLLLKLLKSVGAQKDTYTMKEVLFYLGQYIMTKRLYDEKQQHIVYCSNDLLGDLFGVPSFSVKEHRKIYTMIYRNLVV

Legend:
[1] = Immunogenicity: IL-2, TNF-α and EPO in blood (ELISA); format: in vivo, C57BL/6 mice; details: 5 mg/Kg subcutaneous every other day, three weeks
Method: (§1) PBS was used as a negative control for mock treatment; IL-2 in the blood collected at the end of the treatment were quantified by ELISA kits (R&D Systems) using protein standards from Sigma-Aldrich. The data from each group are presented as the mean±SD (n=6), and statistical analysis was performed using T-test, * standing for p<0.05, *** for p<0.001, and **** for p<0.0001.
as §1, with “TNF-α” for “IL-2”
as §1, with “EPO” for “IL-2”
Immunogenicity of peptide/protein therapeutics often impedes their clinical use. […] IL-2 and TNF-α were used as markers because T cell responses are known to play a critical role in the development of immunogenic responses to therapeutic peptides and proteins. Since biotherapeutics can potentially generate cross-reactive neutralizing antibodies that inhibit endogenous proteins such as EPO, leading to anemia known as antibody-mediated pure red-cell aplasia, EPO was also used as a marker for immunogenicity in the study.

[2] = target: T1, MDM2 (p53-binding domain) (UniProt Q00987 25-109, limits assumed); test: ITC, entropy of binding
T1 construct: The ITC legends say only 'MDM2'

[3] = test system: HCT116 p53^+/+ xenograft tumors; test: Tumor growth inhibition in nude mouse xenograft model; format: in vivo, BALB/c nude mice; details: same dose of 5 mg/Kg; from molecular mass ratio
[4] = test system: p53, p21 and Ki-67 in tumor tissues; test: Immunohistochemical staining of tumor tissues (p53, p21, Ki-67); format: in vivo, BALB/c nude mice; details: after three-week treatment, 5 mg/Kg
Method: Prepared tissue sections at 5 μm thickness were incubated with various antibodies at 4° C. overnight, and subsequently stained using the Labeled Streptavidin-Biotin (LSAB) staining method. Each stained section was evaluated by a minimum of 10 randomly selected ×20 high-power fields for further statistical analysis.
FIG. 7H is the statistical analysis of IHC scores. A numeric score ranging from 0 to 3 was used to evaluate immunostaining intensity (I): 0, no staining; 1, weak staining; 2, moderate staining; 3, strong staining. To evaluate immunostaining area (A), a numeric score ranging from 1 to 4 was used: 1, positive area<10%; 2, 10%<positive area<50%; 3, 50%<positive area<90%; 4, positive area>90%. The total score, I×A, was calculated accordingly, and statistical analysis was performed using T-test, * standing for p<0.05.
Taken together, the in vivo data unequivocally validates the design of ^PMIBcr/Abl-R6 as a potent antitumor agent that inhibits tumor growth in a p53-dependent fashion.

[5] = target: T1, MDM2 (p53-binding domain); test: ITC, stoichiometry
[6] = target: T1, MDM2 (p53-binding domain); test: ITC, 80 µM protein injected into 8 µM MDM2, 25° C., 20 mM Tris/HCl pH 7.4; ITC, 25 C, 80 uM protein and 8 uM MDM2
[7] = target: T1, MDM2 (p53-binding domain); test: ITC, enthalpy of binding
[8] = target: p53-binding domain of MDM2 (Homo sapiens, UniProt Q00987); test: Binding affinity for MDM2 by isothermal titration calorimetry (ITC); details: 25° C., 20 mM Tris/HCl, pH 7.4

Molecule | EPO level in the blood [1] | IL-2 level in the blood [1] | TNF-α level in the blood [1] | ΔS [2] [cal/mol/deg] | activity relative to Nutlin-3 on molar basis, as a monomer [3] | activity relative to Nutlin-3 on molar basis, as a tetramer [3] [fold] | expression of Ki-67 in tumor tissues (IHC) [4] | expression of p53 and p21 in tumor tissues (IHC) [4] | N [5] | Kd [6] [nM] | ΔH [7] [kcal/mol] | binding affinity (KD) for MDM2 [8]
CC(C)C[C@H](NC(=O)[C@H](C)NC(=O)[C@H](Cc1c[nH]c2ccccc12)NC(=O)[C@H](Cc1ccc(O)cc1)NC(=O)[C@H](CCC(=O)O)NC(=O)[C@H](C)NC(=O)[C@H](Cc1ccccc1)NC(=O)[C@H](CO)NC(=O)[C@@H](N)[C@@H](C)O)C(=O)N[C@@H](CC(C)C)C(=O)N[C@@H](CO)C(=O)N1CCC[C@H]1C(=O)O [PMI, reference compound] | decreased | noticeably increased | noticeably increased | – | – | – | – | – | – | – | – | –
^PMIBcr/Abl-R6 (designed binder, Bcr/Abl tetramerization domain with PMI grafted in place of residues 5-16 and a C-terminal Arg hexapeptide (R6); 78 residues, chemically synthesized by native chemical ligation; Exists as a tetramer in aqueous buffer) MVDPTSFAEYWALLSPDSEPPRMELRSVGDIEQELERAKASIRRLEQEVNQERFRMIYLQTLLAKEKKSYDRRRRRRR | only slight changes | only slight changes | only slight changes | 2.33 | at least 16 fold | ≥ 64 | decreased | significantly increased | 0.987 | 32 | -9.21 | –
Bcr/Abl-R6 (other, Negative control scaffold without the PMI graft: Bcr/Abl tetramerization domain with C-terminal R6; Chemically synthesized; tetramer in aqueous buffer) MVDPVGFAEAWKAQFPDSEPPRMELRSVGDIEQELERAKASIRRLEQEVNQERFRMIYLQTLLAKEKKSYDRRRRRRR | – | – | – | – | – | – | – | – | – | – | – | No binding was detected
